Consider one substance from PMC9166766 (Experimental & Molecular Medicine, 2022).

The subject of data set [1] is CNAβ2 (calcineurin catalytic subunit). The experiment in a line: Mammalian two-hybrid assay (VP16 AD-CNAβ2 and GAL4 DBD-peptides, pG5-luc) in HEK293T cells. Format: cell-based. The conditions noted are these: with or without 1 μM ionomycin. The procedure:
(§1) To measure the transcriptional activity of NFAT, we cotransfected Jurkat T cells with GST-tagged peptides and NFAT-luc by electroporation. After 24 h, we pretreated the cells with 0.5 μM FK506 for 1 h and then treated them with 40 nM PMA and 1 μM ionomycin for 8 h. For the mammalian two-hybrid assay, we cotransfected HEK293T cells with GAL4 DBD-tagged CABIN1, VIVIT, chimeric and substituted peptides, VP16 activation domain-tagged CNAβ2, and pG5-luc (luciferase reporter plasmid containing the GAL4-responsive promoter) for 24 h. We lysed the harvested cells with a luciferase assay lysis buffer (17 mM KH2PO4, 183 mM K2HPO4, pH 7.8, 0.2% [v/v] Triton X-100) and sonicated them briefly. We measured luciferase activity for each cell lysate using an Infinite M200 (Tecan, Männedorf, Switzerland). In addition, we confirmed the expression level of the transfected proteins by Western blotting.
Fig. 1 The short peptide from the CABIN1 C-terminus is essential for interaction with calcineurin. a Schematic diagram and sequence of CABIN1 fragments. b, c A mammalian two-hybrid assay was performed using VP16 AD-CNAβ2 and GAL4 DBD-CABIN1 peptides (b CABIN1-14, -15, -S ~ L; c CABIN1-L-1 ~ L-1-4) in HEK293T cells. d Sequences of CABIN1-L-1-2, the VIVIT 10-mer and the chimeric peptide (top). A mammalian two-hybrid assay using these peptides was performed (bottom). […]

In data set [2] the test system is NFAT transcriptional activity. The experiment in a line: NFAT-luc luciferase reporter assay in Jurkat T cells. The format is cell-based. The conditions noted are these: GST-tagged peptides, 40 nM PMA and 1 μM ionomycin 8 h, n = 3. The procedure:
as §1, with “In addition, we confirmed the expression level of the transfected proteins by Western blotting.” left out
Jurkat T cells expressing GST-tagged peptides were treated with PMA and ionomycin for activation. […] For dephosphorylation of NFATC2, Jurkat T cells were treated with PMA and ionomycin for 2 h. c Hyper- and hypophosphorylated NFATC2 of b was measured using ImageJ, and the hypo/hyper ratio was calculated (n = 7). d Snapshot images of the activated Jurkat T cells expressing the indicated peptides and tNFATC2 were obtained using confocal microscopy. […] Scale bar, 50 μm e Nuclear-localized tNFATC2 was measured by calculating the colocalization ratio between Hoechst (M1) and EGFP (M2). […]

The test system of data set [3] is NFATC2 dephosphorylation. The experiment in a line: NFAT mobility shifting assay in Jurkat T cells. The format is cell-based. The conditions noted are these: HA-mCherry-tagged peptides, PMA and ionomycin 2 h, n = 7. The procedure:
Jurkat T cells expressing GST-tagged peptides were treated with PMA and ionomycin for activation. […] For dephosphorylation of NFATC2, Jurkat T cells were treated with PMA and ionomycin for 2 h. c Hyper- and hypophosphorylated NFATC2 of b was measured using ImageJ, and the hypo/hyper ratio was calculated (n = 7). d Snapshot images of the activated Jurkat T cells expressing the indicated peptides and tNFATC2 were obtained using confocal microscopy. The expression and localization of peptides and tNFATC2 are shown as mCherry (red) and EGFP (green), respectively. Nuclei were stained with Hoechst (blue). Scale bar, 50 μm e Nuclear-localized tNFATC2 was measured by calculating the colocalization ratio between Hoechst (M1) and EGFP (M2). (NC and FK506, n = 10; CABIN1-L-1-2 and VIVIT 10-mer, n = 12) Data are representative of independently repeated experiments and presented as the mean ± standard deviation. Statistical differences were determined using a two-tailed Student’s t-test (a, c) or one-way ANOVA (e). ***p < 0.001, NC negative control.

Data set [4] concerns tNFATC2 nuclear import. The data set is described as follows: Nuclear localization of EGFP-tNFATC2 by confocal microscopy in Jurkat T cells. The format is cell-based. As to conditions: 40 nM PMA and 1 μM ionomycin 4 h, FK506 0.5 μM, n = 10-12. The procedure: We transfected Jurkat T cells with the pCAG-EGFP-tNFATC2-IRES-mCherry-peptide by electroporation. After two days, we pretreated these cells with 0.5 μM FK506 for 30 min. Then, we treated them with 40 nM PMA and 1 μM ionomycin under culture conditions for 4 h. Before imaging by a confocal laser scanning microscope (Nikon, Tokyo, Japan), we treated the cells with 10 μg/ml Hoechst 33342 (Invitrogen, Waltham, MA, USA) to stain nuclei. Colocalization analysis of mCherry and Hoechst was performed with ImageJ and its plugin JACoP to measure the Manders coefficient[23],[24].
Jurkat T cells expressing GST-tagged peptides were treated with PMA and ionomycin for activation. […] For dephosphorylation of NFATC2, Jurkat T cells were treated with PMA and ionomycin for 2 h. c Hyper- and hypophosphorylated NFATC2 of b was measured using ImageJ, and the hypo/hyper ratio was calculated (n = 7). d Snapshot images of the activated Jurkat T cells expressing the indicated peptides and tNFATC2 were obtained using confocal microscopy. […] Scale bar, 50 μm e Nuclear-localized tNFATC2 was measured by calculating the colocalization ratio between Hoechst (M1) and EGFP (M2). […] Statistical differences were determined using a two-tailed Student’s t-test (a, c) or one-way ANOVA (e). ***p < 0.001, NC negative control.

In data set [5] the test system is Jurkat T cells (T-cell activation gene mRNA). The data set is described as follows: Real-time quantitative PCR of activated Jurkat T cells. Format: cell-based. The conditions noted are these: PMA and ionomycin, Supplementary Fig. 5a, b. The source says:
We collected Jurkat T cells with QIAzol Lysis Reagent (Qiagen) to extract total RNA. We reverse transcribed cDNAs from isolated RNA using AMV Reverse Transcriptase and random hexamers. We performed real-time quantitative PCR for each cDNA using TB Green® Premix Ex Taq™ (TaKaRa, Kusatsu, Japan) on a CFX Connect Real-time PCR Detection System (Bio-Rad, Hercules, CA, USA) and normalized the expression to that of 18 S rRNA or GAPDH. Supplementary Table 1 describes the primers used.
Fig. 3 The CABIN1 peptide inhibits T-cell activation. a Heatmap of altered genes affected by FK506 treatment or CABIN1 peptide expression upon T-cell activation. b Gene Ontology analysis of cluster III. c mRNA expression levels of genes included in cluster III. d qRT-PCR data of genes in c. The experiment was independently repeated at least three times, and the data are presented as the mean ± standard deviation. Statistical differences were determined using two-tailed Student’s t-test. *p < 0.05, **p < 0.01, ***p < 0.001, NC negative control.

In data set [6] the test system is CNA (calcineurin catalytic subunit). The data set is described as follows: In vitro peptide competition assay (GST-tagged peptide / His6-tagged CNA). The format is binding. The conditions noted are these: competitor VIVIT 15-mer; molar ratio GST-peptide to competitor 1:50 to 1:400.
The subject of data set [7] is calcineurin (CNA) phosphatase activity. The data set is described as follows: Calcineurin cellular activity assay in Jurkat T cells. As to conditions: HA-mCherry-tagged peptides, PMA and ionomycin. Format: cell-based. The procedure: (§2) We measured calcineurin phosphatase activity in vitro using a calcineurin phosphatase assay kit (BML-AK804, Enzo Life Sciences, Farmingdale, NY, USA). We incubated GST or GST-tagged peptides with CNA for 30 min at room temperature and then followed the manufacturer’s instructions. To measure endogenous calcineurin phosphatase activity, we transiently transfected Jurkat T cells with CAG-HA-mCherry-peptides by electroporation. After 24 h, we pretreated the Jurkat T cells with FK506 for 1 h before activating them with PMA and ionomycin. Next, we washed the cells with TBS buffer (20 mM Tris, pH 7.2, 150 mM NaCl), resuspended them with lysis buffer from the calcineurin cellular activity assay kit (BML-AK816, Enzo Life Sciences), and kept them on ice for 30 min. We collected the lysate supernatant and removed free phosphate by gel filtration using the Desalting Column Resin included in the kit. Next, we followed the manufacturer’s instructions.
(§3) Jurkat T cells expressing only HA-mCherry were used as a negative control, and cells treated with FK506 were used as a positive control. d In vitro calcineurin phosphatase activity assays using purified GST-tagged peptides. Purified GST was used as a negative control. […] Statistical differences were determined using one-way ANOVA. *p < 0.05, NS nonsignificant, NC negative control.

The test system is the same in data set [8]. The data set is described as follows: In vitro calcineurin phosphatase activity assay. Format: biochemical. As to conditions: purified GST-tagged peptides with CNA 30 min room temperature. The protocol:
as §2, §3

The nature of data set [9]: Protein stability of HA-mCherry-VIVIT peptides in Jurkat T cells (western blot, FACS). Format: cell-based. As to conditions: HA-mCherry-tagged. In general terms: Immunoblotting shows a protein as a band on a membrane.
The subject of data set [10] is p38α. The experiment in a line: In vitro kinase assay, p38α. Format: biochemical. The conditions noted are these: GST-tagged peptide, 1 h, 30 °C, 50 μM ATP. The procedure: (§4) We used the purified GST-tagged peptides for the in vitro kinase assays with activated recombinant kinases obtained from Proqinase GmbH (Freiburg, Germany). We performed the kinase assays in reaction buffer (50 mM HEPES-NaOH, pH 7.5, 3 mM MgCl2, 3 mM MnCl2, 3 μM sodium orthovanadate, 1 mM dithiothreitol, 50 μM unlabeled ATP, 5 μCi ^32P-γ-ATP) for 1 h at 30 °C. We stopped the reaction by adding 5× sample buffer and separated the proteins using SDS-PAGE. The gel was stained with Coomassie Brilliant Blue, dried, and developed on X-ray film.
(§5) The phosphorylated threonine of the immunoprecipitated peptide with HA antibody was detected with [PXpTP] antibody. b In vitro kinase assays using purified GST-tagged CABIN1 peptide and PKC downstream kinases. c In vitro kinase assays using purified GST-tagged peptides and kinases included in the MAPK family. d Immunoprecipitation assays using Flag-MAPKs and HA-CABIN1 in HEK293T cells. e, f In vitro kinase assays using p38α and substituted CABIN1 peptides. g Jurkat T cells expressing HA-mCherry-tagged CABIN1 peptide were treated with 10 μM p38α inhibitors for 16 h. Immunoprecipitation was performed with HA antibody and detected by western blotting. h Phosphorylated threonine and peptide-bound CNA of g were measured using ImageJ, and the ratio of phosphorylation and calcineurin binding to the CABIN1 peptide was calculated (n = 6). […]

Data set [11] deals with ERK2. The data set is described as follows: In vitro kinase assay, ERK2. The format is biochemical. The conditions noted are these: GST-tagged peptide, 1 h, 30 °C, 50 μM ATP. The procedure:
as §4, §5

Data set [12] has as its system JNK1. The experiment in a line: In vitro kinase assay, JNK1. The format is biochemical. The conditions noted are these: GST-tagged peptide, 1 h, 30 °C, 50 μM ATP. The protocol:
as §4, §5

Data set [13] concerns calcineurin. As to conditions: ref [19]; cited from earlier work. The source says:
The conventional calcineurin inhibitors FK506 and cyclosporin A have serious side effects. However, they are still widely used in autoimmune diseases and organ transplant patients due to their convenient dosing and effectiveness. Although several alternative calcineurin inhibitors have been developed over the past few decades, none have become clinical treatments thus far. The VIVIT peptide, an optimized peptide derived from the conserved “PxIxIT” sequence of the NFAT family, blocks the interaction between calcineurin and NFAT without affecting calcineurin phosphatase activity. Althoug ...

Data set [14] has as its system allogeneic islet transplantation in mice. The conditions noted are these: ref [33], cited from earlier work. The source says:
To overcome these side effects, researchers have developed alternative inhibitors that specifically perturb the calcineurin-NFAT pathway. […] These peptides compete to interact with CNA, implying that they bind to the same region and have the same mode of action (Fig. 4a). […] For instance, KSR2, another calcineurin substrate that interacts with calcineurin via the “LxVP” motif, is dephosphorylated by calcineurin in response to glucose ...

Data set [15] deals with microbiota-dependent colorectal cancer. As to conditions: ref [36]; cited from earlier work. The source says:
To overcome these side effects, researchers have developed alternative inhibitors that specifically perturb the calcineurin-NFAT pathway.

“Also recorded” adds a separate entry of the source.

As for “VIVIT peptide: optimized peptide derived from the conserved PxIxIT sequence of the NFAT family; 10-mer or 15-mer depending on test”, the “interaction with CNA, effect of 1 μM ionomycin” value in data set [1] is given as “did not affect the interaction”. Moreover, in data set [2], the NFAT luciferase activity entry was “repressed luciferase activity compared with the negative control”. Besides, in data set [3], the “NFATC2 dephosphorylation / band shift” value was “reduced the dephosphorylation of NFATC2, but its inhibitory effect was weaker than that of the CABIN1 peptide”. The “proportion of nuclear-localized tNFATC2” value in data set [4] is listed as “significantly higher proportion of nuclear-localized tNFATC2 than the cells coexpressing the CABIN1-L-1-2 peptide”. Moreover, the “NINJ1 and ZP4 expression upon T-cell activation” value in data set [5] is recorded as “unaffected”. For the same substance, the “interference with interaction between GST-tagged CABIN1 peptide and His6-tagged CNA” value in data set [6] was “vice versa”. The “calcineurin phosphatase activity in cells” value in data set [7] is reported as “did not”. Moreover, the “calcineurin phosphatase activity in vitro” value in [8] is listed as “did not reduce the phosphatase activity of CNA in vitro”. Moreover, the “protein stability in cells” value in [9] is given as “the C-terminal glutamate repeats decreased protein stability; also recorded: dramatically less stable with C-terminal glutamate repeats”. Further, the “phosphorylation by p38α” value in data set [10] is “not”. The “phosphorylation by ERK2” value in [11] was “not”. In [12], the “phosphorylation by JNK1” value is reported as “not”. Further, in data set [13], the “IC50 (in words)” value is on record as “high IC50 value”. Also, in data set [14] (allogeneic islet transplantation), the insulin secretion entry is given as “without reducing insulin secretion; also recorded: did not decrease insulin secretion”. In addition, the “allogeneic islet transplantation result vs FK506” value in data set [14] is “better results than FK506 on allogeneic islet transplantation in mice”. Moreover, the “development of microbiota-dependent colorectal cancer” value in [15] is reported as “successfully suppressed the development of microbiota-dependent colorectal cancer”.
